An excerpt weighted towards active compounds, which were near 0.42% of everything screened.
Epigenetic reg – Quantitative High-Throughput Screen for Regulators of Epigenetic Control; hit rate 0.2% among 280,000; murine LDR cells, GFP reporter derepression, 30 h; Potency, µM (series often up to 53.9 µM), actives largely listed as activators; AID 1865, 2009; note: nearly all actives have a fitted effect of over 60% in size
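Readout is the number of GFP-expressing murine LDR cells, counted by cytometry following washing. Cells were treated with compound for 30 h at 37 C; the stably integrated CMV-GFP locus is normally silent.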
Vif-A3F inh – qHTS for Inhibitors of Vif-A3F Interactions: qHTS; HeLa A3F-eYFP + Vif (tagged APOBEC3F with the HIV-1 protein that degrades it), YFP fluorescence increase; Potency, µM (top dose mostly 46.1 µM); hit rate 0.2% among 390,000; AID 602313, 2012; note: nearly all actives have a fitted effect of over 65% in size
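HeLa cells stably expressing A3F-eYFP plus Vif, plated and incubated overnight at 37 deg C, then exposed to compounds overnight at 37 deg C. Blocked degradation read as raised yellow fluorescence (Ex 488/Em 500-530).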
Rango-impB inh – qHTS Assay for Inhibitors of Rango (Ran-regulated importin-beta cargo) - Importin beta complex formation. Importin subunit beta-1 (Homo sapiens), Q14974. Rango CFP/YFP FRET sensor + importin beta, 45 min. Potency, µM (highest dose often 92.2 µM). hit rate 0.031% among 340,000. AID 540263, 2011; calls by dose curve; note: nearly all actives have a fitted effect of over 15% in size
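FRET biosensor Rango (snurportin 1 IBB between N-terminal EYFP and C-terminal Cerulean), 50 nM in PBS/1 mM DTT/0.02% Tween-20/0.1% BSA, preincubated 5 min RT with compound; 0.125 microM importin beta added, 45 min RT, CFP/YFP FRET ratio read.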
Vif-A3G inh – qHTS for Inhibitors of Vif-A3G Interactions: qHTS | DNA dC->dU-editing enzyme APOBEC-3G (Homo sapiens), Q9HC16 | HeLa A3G-eYFP + Vif (tagged APOBEC3G with the HIV-1 protein that degrades it), YFP fluorescence, overnight | Potency, µM (titrated, usually from 46.1 µM), most hits filed as inhibitors | hit rate 0.076% among 410,000 | AID 602310, 2012; note: nearly all actives have a fitted effect of over 60% in size
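Read-out is eYFP fluorescence (Ex 488/Em 500-530) from Vif-expressing HeLa A3G-eYFP cells; more signal means A3G escaped Vif-mediated degradation. Cells plated overnight, compound pinned in, incubated overnight at 37 deg C.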
Rango dissoc inh – qHTS Assay for Inhibitors of RanGTP induced Rango (Ran-regulated importin-beta cargo) - Importin beta complex dissociation; hit rate 0.071% among 340,000; Biochemical FRET Rango-importin beta, RanGTP-induced dissociation; AID 540253, 2011; Potency, µM (doses to about 46.1 µM); Snurportin-1 (Homo sapiens) + GTP-binding nuclear protein Ran (Homo sapiens) + Importin …; calls by dose curve; note: nearly all actives have a fitted effect of over 45% in size
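Compounds preincubate 5 min with complex of recombinant Rango and importin beta in PBS with 1 mM DTT. Ran (0.6 uM) loaded with 2 mM GTP plus 0.2 uM RCC1 starts dissociation; FRET is recorded 45 min later.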
Numbers stand for hits. Unless noted, calls come from the whole dose curve; as a rule, active = well fitted curve in the direction sought with a large enough effect; inconclusive = small, poorly fitted or top-dose-only effect, or another doubt; inactive = no such curve, though single readings can be large; an effect the other way counts as inactive or inconclusive.

Amino acid sequences for entries named in this document (tags omitted).
Importin subunit beta-1 (Homo sapiens), Q14974, UniProt Q14974, whole entry, looked up: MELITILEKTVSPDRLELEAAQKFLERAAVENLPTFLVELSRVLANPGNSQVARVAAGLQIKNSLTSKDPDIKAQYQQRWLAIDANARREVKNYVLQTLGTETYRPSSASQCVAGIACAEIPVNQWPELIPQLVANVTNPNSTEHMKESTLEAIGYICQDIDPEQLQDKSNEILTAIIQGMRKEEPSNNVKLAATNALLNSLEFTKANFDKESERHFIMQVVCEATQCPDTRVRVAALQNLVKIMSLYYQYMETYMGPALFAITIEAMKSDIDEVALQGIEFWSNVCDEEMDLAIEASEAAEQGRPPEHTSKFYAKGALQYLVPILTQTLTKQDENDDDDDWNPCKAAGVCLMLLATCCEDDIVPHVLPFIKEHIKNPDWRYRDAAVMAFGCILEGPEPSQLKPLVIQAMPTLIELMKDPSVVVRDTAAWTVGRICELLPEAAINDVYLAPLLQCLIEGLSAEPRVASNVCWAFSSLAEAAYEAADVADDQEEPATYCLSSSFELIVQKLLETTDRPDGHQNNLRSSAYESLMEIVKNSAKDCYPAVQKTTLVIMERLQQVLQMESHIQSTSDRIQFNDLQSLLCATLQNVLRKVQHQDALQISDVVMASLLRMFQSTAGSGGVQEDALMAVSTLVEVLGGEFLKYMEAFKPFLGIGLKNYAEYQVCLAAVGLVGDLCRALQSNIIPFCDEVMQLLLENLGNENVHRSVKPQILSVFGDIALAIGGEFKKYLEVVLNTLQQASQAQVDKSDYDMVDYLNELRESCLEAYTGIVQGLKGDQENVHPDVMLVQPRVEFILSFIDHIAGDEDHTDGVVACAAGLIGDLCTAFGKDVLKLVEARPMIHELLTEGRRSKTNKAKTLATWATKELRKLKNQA

Results for c1ccc(-c2cn3nc(-c4ccccc4)c(-c4ccccc4)nc3n2)cc1 ?
Epigenetic reg: inactive; Vif-A3F inh: inconclusive; Rango-impB inh: inconclusive; Vif-A3G inh: inconclusive; Rango dissoc inh: inconclusive

What do the screens show for `Cc1ccc(-c2cn3nc(-c4ccccc4)c(-c4ccccc4)nc3n2)cc1`?
Epigenetic reg: inactive; Vif-A3F inh: 4.47µM; Rango-impB inh: inconclusive; Vif-A3G inh: inactive; Rango dissoc inh: inconclusive

How did COc1cc(OC)c(N(C)C(=O)C2CCCN(c3ncnc4c3nc3n4CCCCC3)C2)cc1Cl (stereo not given) do in these assays?
Epigenetic reg: inactive; Vif-A3F inh: inactive; Vif-A3G inh: inactive

How did CCCCNc1c(-c2ccc(SC(C)CC)cc2)nc2cnccn12 (stereo not given) do in these assays?
Vif-A3F inh: 10µM; Rango-impB inh: inconclusive; Vif-A3G inh: inconclusive; Rango dissoc inh: inconclusive

Results for CCN(CC)c1ccc(/C=C(/C#N)c2nc3ccc(C)cc3[nH]2)c(OC(C)C)c1 ?
Epigenetic reg: 5.01µM; Vif-A3F inh: inactive; Rango-impB inh: inconclusive; Vif-A3G inh: inconclusive; Rango dissoc inh: inconclusive

Results for Cc1cc(/C=C(\C#N)c2nc3ccccc3[nH]2)c(C)n1C ?
Epigenetic reg: inactive; Vif-A3F inh: inactive; Rango-impB inh: inconclusive; Vif-A3G inh: inactive; Rango dissoc inh: inconclusive

Results for CCOc1cc(N(CC)CC)ccc1/C=C(/C#N)c1nc2ccccc2[nH]1 ?
Epigenetic reg: 7.94µM; Vif-A3F inh: 3.55µM; Rango-impB inh: inconclusive; Vif-A3G inh: inconclusive; Rango dissoc inh: inconclusive

Results for Cc1cccc(OCC(=O)N(Cc2ccc(C(C)(C)C)cc2)Cc2ccco2)c1 ?
Epigenetic reg: inactive; Vif-A3F inh: inactive; Vif-A3G inh: inactive

Results for CC12CC3CC(C)(C1)CC(C(=O)NC(=S)N1CCOCC1)(C3)C2 ?
Epigenetic reg: inactive; Vif-A3F inh: inactive; Rango-impB inh: inactive; Vif-A3G inh: 10µM; Rango dissoc inh: inactive

Results for CCOc1ccc(NC(=O)C2CCN(C(=O)N3CC(C)Oc4ccc(Cl)cc43)CC2)cc1 (stereo not given) ?
Epigenetic reg: inactive; Vif-A3F inh: inactive; Vif-A3G inh: inactive

Results for CCNC(=S)N/N=C(\C)c1ccc(N2CCOCC2)cc1 ?
Epigenetic reg: inactive; Vif-A3F inh: 22.4µM; Rango-impB inh: inactive; Vif-A3G inh: inactive; Rango dissoc inh: inactive

Results for Cc1ccccc1Cn1c(C)nc2ccc([N+](=O)[O-])cc2c1=O ?
Vif-A3F inh: inactive; Rango-impB inh: 58µM; Vif-A3G inh: inactive; Rango dissoc inh: inactive

What do the screens show for `Cc1cccc(Cn2c(C)nc3ccc([N+](=O)[O-])cc3c2=O)c1`?
Vif-A3F inh: inactive; Rango-impB inh: inactive; Vif-A3G inh: inactive; Rango dissoc inh: inactive

Results for Cc1cc(Nc2ccccc2)nc2cc(O)ccc12 ?
Epigenetic reg: inconclusive; Vif-A3F inh: inactive; Rango-impB inh: inconclusive; Vif-A3G inh: inactive; Rango dissoc inh: 7.31µM

Results for Cc1ccccc1NC(=O)c1ccc(F)c(S(=O)(=O)N(C)Cc2ccccc2)c1 ?
Epigenetic reg: inactive; Vif-A3F inh: inactive; Vif-A3G inh: inactive

How did COc1ccc(CC(=O)Nc2ccc(-c3nc4ccccc4s3)c(C)c2)cc1OC do in these assays?
Epigenetic reg: inactive; Vif-A3F inh: inactive; Vif-A3G inh: inactive

Results for N#C/C(=C/c1ccc(N2CCOCC2)o1)c1nc2ccccc2[nH]1 ?
Epigenetic reg: 15.8µM; Vif-A3F inh: inconclusive; Rango-impB inh: inconclusive; Vif-A3G inh: inconclusive; Rango dissoc inh: inconclusive

Results for N#C/C(=C\c1ccc(N2CCOCC2)o1)c1ccccc1 ?
Epigenetic reg: 11.2µM; Vif-A3F inh: inconclusive; Rango-impB inh: inconclusive; Vif-A3G inh: inconclusive; Rango dissoc inh: inconclusive

What do the screens show for `N#C/C(=C\c1ccc(N2CCOCC2)cc1)c1ccccc1`?
Epigenetic reg: inactive; Vif-A3F inh: inactive; Rango-impB inh: inconclusive; Vif-A3G inh: inactive; Rango dissoc inh: inconclusive

Results for N#C/C(=C\c1cc([N+](=O)[O-])c(N2CCOCC2)cc1N1CCOCC1)c1nc2ccccc2[nH]1 ?
Epigenetic reg: inactive; Vif-A3F inh: inactive; Rango-impB inh: inactive; Vif-A3G inh: inactive; Rango dissoc inh: inactive

How did N#C/C(=C/c1ccc(N2CCOCC2)o1)c1ccc(Br)cc1 do in these assays?
Epigenetic reg: 3.98µM; Rango-impB inh: inconclusive; Vif-A3G inh: inconclusive; Rango dissoc inh: inconclusive

Results for COc1ccc2c(c1)c1c(c(=O)n(-c3cc(Cl)ccc3C)c(=O)n1Cc1ccc(F)cc1)n2C ?
Epigenetic reg: inactive; Vif-A3F inh: inactive; Vif-A3G inh: inactive

What do the screens show for `COc1ccc2nc3c(c([Si](C)(C)C(C)(C)C)c2c1)Cn1c-3cccc1=O`?
Epigenetic reg: inactive

What do the screens show for `COc1cc2nc3c(c([Si](C)(C)C(C)(C)C)c2cc1OC)Cn1c-3cccc1=O`?
Epigenetic reg: 7.94µM

Results for COc1ccc(NC(=O)C(NC(=O)C2CCC(C)CC2)C(C)C)cc1 (stereo not given) ?
Epigenetic reg: inactive; Vif-A3F inh: inactive; Vif-A3G inh: inactive

Results for Cc1ccnc2ccc3ccccc3c12 ?
Vif-A3G inh: inactive

What do the screens show for `CCOc1ccc(NC(=O)/C=C\C(=O)N(c2ccc(C(C)C)cc2)C(C(=O)NCc2ccco2)c2ccc(F)cc2)cc1` (stereo not given)?
Epigenetic reg: inactive; Vif-A3F inh: inactive; Vif-A3G inh: inactive

How did CCCCOc1ccc(C(=O)NCCc2sc3nc(-c4ccc(OC)cc4)nn3c2C)cc1 do in these assays?
Epigenetic reg: inactive; Vif-A3F inh: inactive; Vif-A3G inh: inactive

Results for FC(F)(F)c1ccccc1NC(=S)NN=C1CCCCCC1 ?
Epigenetic reg: inactive; Vif-A3F inh: 6.31µM; Rango-impB inh: inactive; Vif-A3G inh: inconclusive; Rango dissoc inh: inactive

How did Cn1nnnc1SCc1nc2scc(-c3ccc(Cl)cc3)c2c(=O)[nH]1 do in these assays?
Epigenetic reg: inconclusive; Vif-A3F inh: 22.4µM; Rango-impB inh: inconclusive; Vif-A3G inh: inactive; Rango dissoc inh: inactive

Results for Cn1nnnc1SCc1nc2scc(-c3ccccc3)c2c(=O)[nH]1 ?
Epigenetic reg: inactive; Vif-A3F inh: inactive; Rango-impB inh: inactive; Vif-A3G inh: inactive; Rango dissoc inh: inactive

Results for Oc1cc(Nc2ccncc2)cc2cccnc12 ?
Vif-A3F inh: inactive; Rango-impB inh: 41.1µM; Vif-A3G inh: inactive; Rango dissoc inh: inconclusive

Results for CCCNC(=O)Nc1cc(C(=O)NCc2cccc(OCC)c2)ccc1N1CCCC1 ?
Epigenetic reg: inactive; Vif-A3F inh: inactive; Vif-A3G inh: inactive

What do the screens show for `Cc1cccn2c(=O)c3cc(C#N)c(=NC(=O)c4cccs4)n(CCCOC(C)C)c3nc12`?
Epigenetic reg: inconclusive; Vif-A3F inh: 25.1µM; Rango-impB inh: inconclusive; Vif-A3G inh: inactive; Rango dissoc inh: inconclusive
